This experiment addresses Human recombinant PKCα (Homo sapiens, UniProt P17252). In words: Protein Kinase Cα Assay. The following applies: read-out: IC50 PKCα; single compounds. As for the experimental part: The compounds of the invention are tested for their activity on different PKC isoforms according to the following method. Assay is performed in a white with clear bottom 384-well microtiterplate with non-binding surface. The reaction mixture (25 μl) contains 1.5 μM of a tridecapeptide acceptor substrate that mimics the pseudo substrate sequence of PKC a with the Ala→Ser replacement, 10 μM ^33P-ATP, 10 mM Mg(NO3)2, 0.2 mM CaCl2, PKC at a protein concentration varying from 25 to 400 ng/ml (depending on the isotype used), lipid vesicles (containing 30 mol % phosphatidylserine, 5 mol % DAG and 65 mol % phosphatidylcholine) at a final lipid concentration of 0.5 mM, in 20 mM Tris-HCl buffer pH 7.4 +0.1% BSA. Incubation is performed for 60 min at room temperature. Reaction is stopped by adding 50 μl of stop mix (100 mM EDTA, 200 μM ATP, 0.1% Triton X-100, 0.375 mg/well streptavidin-coated SPA beads in phosphate buffered saline w/o Ca, Mg. After 10 min incubation at room temperature, the suspension is spun down for 10 min at 300 g. Incorporated radioactivity is measured in a Trilux counter for 1 min. IC50 measurement is performed on a routine basis by incubating a serial dilution of inhibitor at concentrations ranging between […]. IC50 values are calculated from the graph by curve fitting with XL Fit® software. […]

pIC50: −log10 of the molar value.

The pIC50 is the negative decadic logarithm of the IC50, by convention in mol/L.

In the case of `Cc1nn2ccc(CN(C)C)cc2c1C1=C(c2c[nH]c3c(C)cccc23)C(=O)NC1=O`, the pIC50 was 8.85.
